According to PMC12297423, “Dual α-amylase and α-glucosidase inhibition by 1,2,4-triazole derivatives for diabetes treatment” (Scientific Reports, 2025):

Target: T1, porcine pancreatic α-amylase (Sus scrofa, UniProt P00690)
T1 sequence (P00690 16-511): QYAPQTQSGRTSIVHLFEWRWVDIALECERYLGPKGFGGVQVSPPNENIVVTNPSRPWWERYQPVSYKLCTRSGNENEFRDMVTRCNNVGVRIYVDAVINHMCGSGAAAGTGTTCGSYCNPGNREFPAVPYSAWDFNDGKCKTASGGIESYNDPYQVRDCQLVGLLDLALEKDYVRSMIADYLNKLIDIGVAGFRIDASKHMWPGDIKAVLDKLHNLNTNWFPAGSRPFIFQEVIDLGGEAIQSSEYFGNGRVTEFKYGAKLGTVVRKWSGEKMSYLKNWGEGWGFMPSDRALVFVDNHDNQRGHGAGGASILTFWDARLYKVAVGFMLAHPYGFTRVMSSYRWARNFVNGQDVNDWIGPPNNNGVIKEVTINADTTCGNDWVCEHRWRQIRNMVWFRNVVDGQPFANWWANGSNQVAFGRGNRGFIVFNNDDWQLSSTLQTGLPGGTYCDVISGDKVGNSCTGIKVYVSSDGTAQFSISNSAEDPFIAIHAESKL
Assay: In vitro α-amylase inhibition assay (BioVision kit / modified DNSA method)
Conditions: Table 1S

## C[C@H]1O[C@H](O[C@H]2[C@H](O)[C@@H](O)[C@@H](O[C@H]3[C@H](O)[C@@H](O)C(O)O[C@@H]3CO)O[C@@H]2CO)[C@H](O)[C@@H](O)[C@@H]1N[C@H]1C=C(CO)[C@@H](O)[C@H](O)[C@H]1O (stereo partly shown) [Acarbose, reference compound]
Conc 0.1 (µg/mL)
  %inh α-amylase: 44.3%
Conc 1 (µg/mL)
  %inh α-amylase: 62.8%
Conc 10 (µg/mL)
  %inh α-amylase: 84.2%
Conc 100 (µg/mL)
  %inh α-amylase: 93.4%
